According to PubChem BioAssay (EPA / NIEHS):
This is a selection; strong and weak results do not stand in their true shares. Inconclusive results are not listed. Active and inactive are the calls of the source. The calls were made as follows, unless noted: active = hit-call score of the fitted dose curve at least 0.9, where 1 is the maximum; inconclusive = response in the unintended direction; inactive = score below 0.9.

Chains of the proteins cited; added tags and fusions are not shown.
UniProt P04150, whole entry: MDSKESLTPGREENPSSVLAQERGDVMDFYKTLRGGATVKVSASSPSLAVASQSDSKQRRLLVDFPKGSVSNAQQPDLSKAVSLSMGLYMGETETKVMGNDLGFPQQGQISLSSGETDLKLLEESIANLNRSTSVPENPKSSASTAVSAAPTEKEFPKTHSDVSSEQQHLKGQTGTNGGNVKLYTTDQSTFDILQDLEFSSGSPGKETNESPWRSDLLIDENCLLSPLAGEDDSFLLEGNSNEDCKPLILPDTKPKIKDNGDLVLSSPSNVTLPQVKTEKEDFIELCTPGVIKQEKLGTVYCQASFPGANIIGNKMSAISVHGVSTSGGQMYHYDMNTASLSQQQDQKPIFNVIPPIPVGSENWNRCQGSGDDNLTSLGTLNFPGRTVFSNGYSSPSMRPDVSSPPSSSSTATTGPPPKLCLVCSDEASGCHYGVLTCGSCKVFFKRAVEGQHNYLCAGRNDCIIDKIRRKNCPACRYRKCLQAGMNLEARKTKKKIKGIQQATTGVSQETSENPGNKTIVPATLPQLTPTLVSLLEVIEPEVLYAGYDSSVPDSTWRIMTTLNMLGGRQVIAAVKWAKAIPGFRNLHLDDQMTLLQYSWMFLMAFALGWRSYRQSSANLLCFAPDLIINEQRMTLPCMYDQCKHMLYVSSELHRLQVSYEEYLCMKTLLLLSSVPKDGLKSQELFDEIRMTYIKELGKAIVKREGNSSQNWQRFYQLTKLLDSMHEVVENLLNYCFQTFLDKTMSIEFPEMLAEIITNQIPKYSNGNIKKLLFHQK
UniProt P55055, whole entry: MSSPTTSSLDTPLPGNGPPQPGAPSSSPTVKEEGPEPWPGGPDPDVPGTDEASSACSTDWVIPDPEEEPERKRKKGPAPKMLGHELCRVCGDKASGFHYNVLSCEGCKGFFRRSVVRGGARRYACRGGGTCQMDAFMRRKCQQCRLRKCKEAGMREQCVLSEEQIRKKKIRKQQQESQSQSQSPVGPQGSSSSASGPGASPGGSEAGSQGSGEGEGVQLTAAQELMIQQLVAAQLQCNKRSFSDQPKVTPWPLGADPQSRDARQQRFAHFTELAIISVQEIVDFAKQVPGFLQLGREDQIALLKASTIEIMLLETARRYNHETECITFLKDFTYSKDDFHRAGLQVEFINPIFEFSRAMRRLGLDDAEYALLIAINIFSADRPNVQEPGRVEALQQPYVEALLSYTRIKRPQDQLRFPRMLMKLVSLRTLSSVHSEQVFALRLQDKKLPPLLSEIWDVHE
UniProt P41235, whole entry: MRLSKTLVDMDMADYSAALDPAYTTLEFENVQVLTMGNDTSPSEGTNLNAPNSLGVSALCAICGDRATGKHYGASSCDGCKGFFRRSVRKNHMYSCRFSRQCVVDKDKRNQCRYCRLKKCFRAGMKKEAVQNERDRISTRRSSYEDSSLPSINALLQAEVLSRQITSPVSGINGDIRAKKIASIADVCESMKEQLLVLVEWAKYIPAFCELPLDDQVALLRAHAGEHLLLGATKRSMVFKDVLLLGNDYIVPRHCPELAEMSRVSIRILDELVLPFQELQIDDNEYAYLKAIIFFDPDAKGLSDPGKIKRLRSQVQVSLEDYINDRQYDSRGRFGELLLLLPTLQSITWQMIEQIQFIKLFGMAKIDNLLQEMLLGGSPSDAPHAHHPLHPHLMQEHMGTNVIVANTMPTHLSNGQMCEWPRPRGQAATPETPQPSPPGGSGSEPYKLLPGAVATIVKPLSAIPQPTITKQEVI
UniProt P10242, whole entry: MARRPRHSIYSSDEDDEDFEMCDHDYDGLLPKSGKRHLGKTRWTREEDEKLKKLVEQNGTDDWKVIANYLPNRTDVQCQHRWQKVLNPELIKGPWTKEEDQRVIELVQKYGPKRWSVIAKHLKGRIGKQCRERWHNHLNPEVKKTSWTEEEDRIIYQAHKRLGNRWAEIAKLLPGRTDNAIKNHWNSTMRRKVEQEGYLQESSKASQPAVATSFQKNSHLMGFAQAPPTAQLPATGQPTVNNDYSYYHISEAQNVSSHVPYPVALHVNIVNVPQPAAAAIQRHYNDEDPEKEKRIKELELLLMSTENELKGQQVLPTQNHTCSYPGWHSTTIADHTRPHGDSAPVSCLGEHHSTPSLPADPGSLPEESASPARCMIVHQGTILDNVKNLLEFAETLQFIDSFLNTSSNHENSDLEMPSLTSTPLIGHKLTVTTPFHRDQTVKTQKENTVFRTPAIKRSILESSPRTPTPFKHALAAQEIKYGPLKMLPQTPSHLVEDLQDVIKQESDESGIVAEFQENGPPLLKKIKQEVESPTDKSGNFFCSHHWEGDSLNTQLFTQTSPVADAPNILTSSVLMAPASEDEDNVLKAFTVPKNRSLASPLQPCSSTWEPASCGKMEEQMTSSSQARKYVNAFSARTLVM
UniProt Q96RI1, whole entry: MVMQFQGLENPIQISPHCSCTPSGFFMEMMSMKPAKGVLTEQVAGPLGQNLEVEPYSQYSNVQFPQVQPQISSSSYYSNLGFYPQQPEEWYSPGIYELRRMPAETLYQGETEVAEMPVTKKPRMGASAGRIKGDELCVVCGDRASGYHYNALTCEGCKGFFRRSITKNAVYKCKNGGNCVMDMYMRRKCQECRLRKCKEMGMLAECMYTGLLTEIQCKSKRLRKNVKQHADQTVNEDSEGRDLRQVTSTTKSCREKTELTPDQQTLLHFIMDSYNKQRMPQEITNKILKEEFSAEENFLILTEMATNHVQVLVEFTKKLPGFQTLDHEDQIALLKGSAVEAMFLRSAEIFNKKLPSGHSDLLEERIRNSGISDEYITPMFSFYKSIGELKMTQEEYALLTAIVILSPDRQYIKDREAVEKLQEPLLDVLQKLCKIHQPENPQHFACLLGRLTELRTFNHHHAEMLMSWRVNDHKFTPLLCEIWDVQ
UniProt Q13133, whole entry: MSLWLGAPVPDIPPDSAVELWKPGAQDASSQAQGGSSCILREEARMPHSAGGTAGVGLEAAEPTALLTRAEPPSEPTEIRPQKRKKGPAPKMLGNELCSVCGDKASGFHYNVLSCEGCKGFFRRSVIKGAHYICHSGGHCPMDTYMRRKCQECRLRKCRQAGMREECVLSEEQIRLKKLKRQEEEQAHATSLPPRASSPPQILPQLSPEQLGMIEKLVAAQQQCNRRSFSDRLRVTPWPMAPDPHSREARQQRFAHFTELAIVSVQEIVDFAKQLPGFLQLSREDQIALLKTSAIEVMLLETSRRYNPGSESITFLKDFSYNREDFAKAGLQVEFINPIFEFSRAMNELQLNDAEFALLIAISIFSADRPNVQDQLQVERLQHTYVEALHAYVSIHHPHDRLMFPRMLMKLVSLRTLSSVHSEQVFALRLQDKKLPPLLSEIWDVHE
UniProt P62508, whole entry: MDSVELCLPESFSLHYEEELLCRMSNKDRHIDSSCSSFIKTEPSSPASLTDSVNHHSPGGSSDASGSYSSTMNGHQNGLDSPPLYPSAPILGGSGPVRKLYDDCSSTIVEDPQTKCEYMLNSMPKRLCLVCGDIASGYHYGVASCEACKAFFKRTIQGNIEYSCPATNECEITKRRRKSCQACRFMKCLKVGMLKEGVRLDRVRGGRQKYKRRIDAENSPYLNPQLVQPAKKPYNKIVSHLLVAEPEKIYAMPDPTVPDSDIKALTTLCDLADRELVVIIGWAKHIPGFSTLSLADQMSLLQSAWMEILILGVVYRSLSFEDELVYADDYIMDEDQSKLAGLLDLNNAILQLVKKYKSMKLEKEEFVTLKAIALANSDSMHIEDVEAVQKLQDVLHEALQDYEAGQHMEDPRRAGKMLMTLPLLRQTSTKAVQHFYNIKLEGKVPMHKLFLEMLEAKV

How the values were obtained:
[1] = molecular target: Glucocorticoid receptor (Homo sapiens) (UniProt P04150); test: ATG_GR_TRANS: Attagene TRANS-FACTORIAL HepG2 Assay for human Glucocorticoid Receptor (GR) (AID 2282978); details: HepG2 Attagene TRANS GR reporter, mRNA transcription;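 also: activators score as hits since higher reporter transcript over DMSO is fitted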
[2] = molecular target: Oxysterols receptor LXR-beta (Homo sapiens) (UniProt P55055); test: ATG_LXRb_TRANS: Attagene TRANS-FACTORIAL HepG2 Assay for human Liver X Receptor beta (LXRb) (AID 2282981); details: HepG2 Attagene TRANS GAL4-LXRb reporter, mRNA
How it was run: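 Readout: fluorescent reporter mRNA fragments resolved by capillary electrophoresis after RT-PCR. System: transiently transfected human HepG2, exogenous LXRb-Gal4 chimera driving GAL4-UAS reporter, 24 h dosing. Activity fitted upward against DMSO baseline.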

[3] = molecular target: Hepatocyte nuclear factor 4-alpha (Homo sapiens) (UniProt P41235); test: ATG_HNF4a_TRANS: Attagene TRANS-FACTORIAL HepG2 Assay for human Hepatocyte Nuclear Factor 4 alpha (HNF4a) (AID 2282982); details: HepG2 HNF4a transactivation reporter, mRNA readout
How it was run: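 Transient MRTU transfection of HepG2, 24 h dosing. Readout: reporter mRNA via RT-PCR + capillary electrophoresis, fluorescence; activity fit upward relative to DMSO control.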

[4] = molecular target: Transcriptional activator Myb (Homo sapiens) (UniProt P10242); test: ATG_Myb_CIS: Attagene CIS-FACTORIAL HepG2 Assay for human Myeloblastosis (Myb) Proto-Oncogene Transcription Factor (AID 2282986; active = hit-call score of the fitted dose curve at least 0.9, where 1 is the maximum; inactive = score below 0.9); details: HepG2 Attagene CIS-FACTORIAL Myb reporter transcription; actives raise or lower the signal
Method: ATG_CIS is a cell-based, multiplexed-readout assay that uses HepG2, a human liver cell line, with measurements taken at 24 hours after chemical dosing in a 24-well plate.ATG_Myb_CIS is one of 52 assay component(s) measured or calculated from the ATG_CIS assay. It is designed to make measurements of mRNA induction, a form of inducible reporter, as detected with fluorescence intensity signals by Reverse transcription polymerase chain reaction (RT-PCR) and Capillary electrophoresis technology.Data from the assay component ATG_Myb_CIS was analyzed into 1 assay endpoint. This assay endpoint, ATG_Myb_CIS, was analyzed with bidirectional fitting relative to DMSO as the negative control and baseline of activity. Using a type of inducible reporter, measures of mRNA for gain or loss-of-signal activity can be used to understand the reporter gene at the transcription factor-level as they relate to the gene MYB. Furthermore, this assay endpoint can be referred to as a primary readout, because this assay has produced multiple assay endpoints where this one serves a reporter gene function. To generalize the intended target to other relatable targets, this assay endpoint is annotated to the dna binding intended target family, where the subfamily is MYB proteins.
(§1) Human liver HepG2 cells are transiently transfected with multiple reporter transcription units (MRTUs) in 6-well plates using FuGene 6 reagent (Roche; 3 ml FuGene/1 mg DNA). The MRTU constructs are regulated by a cis-regulating element (promoter). […] A major difference between the CIS and TRANS system is that in CIS activities of endogenous TFs are measured, whereas the TRANS assay evaluates changes in activities of exogenous, chimeric NR-Gal4 proteins. […] At the end of 24 hour incubation, total RNA was isolated using TriZol reagent (Invitrogen). The isolated RNA is then reverse-transcribed using oligo(dT) primer and Mo-MLV reverse transcriptase (Invitrogen) with DNAse I (Ambion) treatment for 30 min. The one-tenth of the produced cDNA was amplified by PCR using Taq DNA polymerase (Invitrogen) and two reporter sequence-specific primers. The PCR products were fluorescently labeled by primer extension with 6-arboxyfluorescein (6-FAM) 5'-labeled reporter sequence-specific primer (2 min at 95 C, 20 s at 68 C and 10 min at 72 C) and these products were digested with 5U of HpaI (New England Biolabs) for 2h at 37 C. The fragments were purified using Qiaquick PCR columns (Qiagen), analyzed on an ABI 3130xL genetic analyzer (Applied Biosystems) with peak positions identified by using a set of X-rhodamine (ROX)-labeled MapMarker1000 molecular weight standards (BioVentures). The raw capillary electrophoresis data was processed using Attagraph software (Attagene).

[5] = ATG_GAL4_TRANS: Attagene TRANS-FACTORIAL HepG2 Assay for GAL4 (Internal Marker) (AID 2282976); details: HepG2 Attagene TRANS GAL4 internal marker reporter
Method: (§2) ATG_TRANS is a cell-based, multiplexed-readout assay that uses HepG2, a human liver cell line, with measurements taken at 24 hours after chemical dosing in a 24-well plate.ATG_GAL4_TRANS is one of 30 assay component(s) measured or calculated from the ATG_TRANS assay. It is designed to make measurements of mRNA induction, a form of inducible reporter, as detected with fluorescence intensity signals by Reverse transcription polymerase chain reaction (RT-PCR) and Capillary electrophoresis technology.Data from the assay component ATG_GAL4_TRANS was analyzed into 1 assay endpoint. This assay endpoint, ATG_GAL4_TRANS, was analyzed in the positive analysis fitting direction relative to DMSO as the negative control and baseline of activity. […] Furthermore, this assay endpoint can be referred to as a secondary readout, because this assay has produced multiple assay endpoints where this one serves a background control function. […]
(§3) Human liver HepG2 cells are transiently transfected with multiple reporter transcription units (MRTUs) in 6-well plates using FuGene 6 reagent (Roche; 3 ml FuGene/1 mg DNA). […] A major difference between the CIS and TRANS system is that in CIS activities of endogenous TFs are measured, whereas the TRANS assay evaluates changes in activities of exogenous, chimeric NR-Gal4 proteins. […]

[6] = molecular target: Bile acid receptor (Homo sapiens) (UniProt Q96RI1); test: ATG_FXR_TRANS: Attagene TRANS-FACTORIAL HepG2 Assay for Farnesoid X Receptor (FXR) (AID 2282979); details: HepG2 Attagene TRANS FXR-GAL4 reporter transcription;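 also: hits raise reporter mRNA above DMSO so AC50 marks FXR activation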
Method: as §2, with “plate.ATG_FXR_TRANS” for “plate.ATG_GAL4_TRANS”, “ATG_FXR_TRANS” for “ATG_GAL4_TRANS”, “ATG_FXR_TRANS,” for “ATG_GAL4_TRANS,”, “primary” for “secondary”, “reporter gene” for “background control”
as §3

[7] = molecular target: Oxysterols receptor LXR-alpha (Homo sapiens) (UniProt Q13133); test: ATG_LXRa_TRANS: Attagene TRANS-FACTORIAL HepG2 Assay for human Liver X Receptor alpha (LXRa) (AID 2282980); details: HepG2 Attagene TRANS reporter, LXRa transactivation
How it was run: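 In this multiplexed TRANS system, compounds act on HepG2 cells carrying GAL4-UAS reporter units and a receptor-GAL4 fusion for 24 h. Induced reporter RNA is amplified, fluorescently labelled and sized by capillary electrophoresis, with DMSO as baseline.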

[8] = ATG_M_32_TRANS: Attagene TRANS-FACTORIAL HepG2 Assay for M32 Transcription Factor (Internal Marker) (AID 2282984); details: HepG2 Attagene TRANS M32 internal marker reporter
Method: ATG_TRANS is a cell-based, multiplexed-readout assay that uses HepG2, a human liver cell line, with measurements taken at 24 hours after chemical dosing in a 24-well plate.ATG_M_32_TRANS is one of 30 assay component(s) measured or calculated from the ATG_TRANS assay. It is designed to make measurements of mRNA induction, a form of inducible reporter, as detected with fluorescence intensity signals by Reverse transcription polymerase chain reaction (RT-PCR) and Capillary electrophoresis technology.Data from the assay component ATG_M_32_TRANS was analyzed into 1 assay endpoint. This assay endpoint, ATG_M_32_TRANS, was analyzed in the positive analysis fitting direction relative to DMSO as the negative control and baseline of activity. Using a type of inducible reporter, measures of mRNA for gain-of-signal activity can be used to understand the background control at the transcription factor-level as they relate to the gene . Furthermore, this assay endpoint can be referred to as a secondary readout, because this assay has produced multiple assay endpoints where this one serves a background control function. To generalize the intended target to other relatable targets, this assay endpoint is annotated to the background measurement intended target family, where the subfamily is internal marker.
as §1, with “The raw capillary electrophoresis data was processed using Attagraph software (Attagene).” left out

[9] = ATG_M_06_TRANS: Attagene TRANS-FACTORIAL HepG2 Assay for M06 Transcription Factor (Internal Marker) (AID 2282983); details: HepG2 Attagene TRANS M06 internal marker reporter
How it was run: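 Multi-reporter-transfected HepG2, 24 h treatment; reporter transcripts quantified via RT-PCR, primer-extension labelling and CE. DMSO-normalized gain-of-signal fit.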

[10] = molecular target: Estrogen-related receptor gamma (Homo sapiens) (UniProt P62508); test: ATG_ERRg_TRANS: Attagene TRANS-FACTORIAL HepG2 Assay for human Estrogen-Related Receptor gamma (ERRg) (AID 2282977); details: HepG2 Attagene TRANS reporter, ERRg transactivation;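 also: hits increase reporter signal over DMSO so potencies reflect activators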
How it was run: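 Exogenous NR-Gal4 chimera activity was assessed in HepG2 cells bearing transfected GAL4-UAS reporters. After 24 h dosing, total RNA underwent RT-PCR, fluorescent primer extension and HpaI digestion before capillary electrophoresis, with gain of signal scored against DMSO.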

Measured: outcome

ClCCOP(OCCCl)OCCCl
inactive: [1] | [2] | [3] | [4]

CC(C)OP(OC(C)C)OC(C)C
not listed: [3] | [9] | [10]
inactive: all other assays above

CCOP(=O)(Cl)Cl
inactive: [7] | [2] | [9] | [8] | [4]

O=[N+]([O-])c1ccccc1[N+](=O)[O-]
inactive: [10] | [1] | [7] | [3] | [8] | [4]

ClCCNCCCl
inactive: [1] | [7] | [3] | [9] | [8] | [4]
